Values quoted from earlier work, collected in patent US7927622B1, “Methods of transnasal transport/immunization with highly adaptable carriers” (priority 1999, dated 2011).

Key:
[1] = in vivo, inhaled or intranasal; cited from earlier work
[2] = in vivo, inhaled or intranasal; cited from earlier work; remark: listed apart in the source
[3] = in vivo, cited from earlier work

Substance	bioavailability [1]	nasal insulin bioavailability [2]	relative bioavailability ([3]; po) [%]	half-life [3] [min]	mean absorption half-life [3]	time of peak levels [3] [min]
insulin	greater than 10%	4-9%				
desglycinamide-[Arg8]vasopressin [DGAVP]			0.7	35 to 38	around 8 min	15
